Test results reported in PubChem BioAssay AID1189 (EPA DSSTox, 2008).
Calls of active or inactive are those of the source.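 How the source made its calls: active means a tumor-causing dose value with its tumor site reported for any sex and species group of a rodent or other animal cancer study; inconclusive means only studies judged inadequate by the national testing program; inactive means tested in at least one study, none positive.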 Where a call stands in place of a potency, no number is given.

test: DSSTox (CPDBAS) Carcinogenic Potency Database Summary SingleCellCall Results; settings: animal chronic carcinogenicity bioassays, CPDB summary call
Excerpt: The Carcinogenic Potency Database (CPDB) is a unique and widely used international resource of the results of over 6500 chronic, long-term animal cancer tests on over 1500 chemical substances. The CPDB provides easy access to the bioassay literature, with qualitative and quantitative analyses of both positive and negative experiments that have been published over the past 50 years in the general literature and by the National Cancer Institute/National Toxicology Program. The CPDB standardizes the diverse literature of cancer bioassays that vary widely in protocol, histopathological examination and nomenclature, and in the published author's choices of what information to provide in their papers. Results are reported in the CPDB for tests in rats, mice, hamsters, dogs, and nonhuman primates, and are based on the most positive result among all experiments for each sex-species. The DSSTox CPDBAS (all species) file incorporates data from the CPDB Summary Tables for the full list of over 1500 chemical substances tested in at least one species. A summary SingleCellCall, based on experimental bioassay results of one or more species, is provided for the entire DSSTox CPDBAS file (see Source URL).
An assignment of categorical carcinogenic activity based on minimal evidence for or against activity. […] Associated TD50 values and tumor site details for the relevant species/sex experiment supporting this overall CPDBAS SingleSiteCall are provided in the full CPDBAS DSSTox file (see Comment) and the corresponding CPDBAS Species Bioassay in PubChem.

Row | Structure (SMILES) | outcome
1 | ClCl | inactive; active
2 | CN[N+](=O)[O-] | active
3 | COP(C)(=O)OC | active
4 | O=[N+]([O-])OCC(CO[N+](=O)[O-])(CO[N+](=O)[O-])CO[N+](=O)[O-] | inactive
5 | Cc1c([N+](=O)[O-])cccc1[N+](=O)[O-] | active
6 | O=[N+]([O-])c1cc([N+](=O)[O-])cc([N+](=O)[O-])c1 | inactive; active
7 | CN(C)[N+](=O)[O-] | active
